This is a sample that favours compounds with a hit; in the whole collection about 0.92% have one here.
miR-21 reporter: miR-21 reporter, rising signal | HeLa miR-21 FLuc reporter, luciferase, 48 h | Potency, µM (top dose mostly 38.3 µM) | 340,000 tested, under 10 active | AID 2288; active = well fitted rising curve with a large enough effect; inconclusive = small, poorly fitted or top-dose-only effect; inactive = no such curve, though single readings can be large or run the other way;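 note: miR-21 action dims this reporter so a rising signal means less miR-21 action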
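Luminescence from a firefly luciferase reporter carrying a miR-21 binding site downstream, stably expressed under a CMV promoter in HeLa cells that make miR-21 endogenously, reports miRNA modulation after 48 h compound exposure up to approximately 40uM final.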
RXFP1 agonist: agonists of human relaxin receptor RXFP1; Q9HBX9; HEK293T-RXFP1 cAMP TR-FRET, 30 min; response scale: percent of porcine relaxin response, buffer zero; Potency, µM (doses to about 57.5 µM), most hits filed as activators; 0.3% of 370,000 active; also: nearly all actives have a fitted effect of over 60% in size
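HEK293 cells stably expressing RXFP1, treated 30 min at 37C with compounds plus PDE4 inhibitor Ro 20174; cAMP measured by HTRF TR-FRET. Normalized to buffer and 29 nM porcine relaxin; EC50 by Hill fit.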
KinaseGlo FLuc: blocks Kinase-Glo luciferase, a counter-screen artifact | Kinase-Glo luciferase, ATP luminescence, 8 min | Potency, µM (doses to about 38.3 µM), most hits filed as inhibitors | 0.28% of 200,000 active | AID 1379; also: nearly all actives have a fitted effect of over 60% in size
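Recombinant Kinase-Glo luciferase, 10 uM ATP (linear range), luciferin; imidazole pH 7.2 / KCl / MgCl2 / Tween / BSA buffer; 8 min RT; luminescence.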
GALK inh: inhibitors of human galactokinase | Potency, µM (top dose mostly 57.5 µM), most hits filed as inhibitors | Purified GALK, Kinase-Glo residual ATP luminescence | 0.007% of 270,000 active
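Galactose (100 uM) and ATP (35 uM) were turned over by 5 nM GALK for 1 h at RT. Kinase-Glo Plus then converted the remaining ATP into a luminescent signal.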
PKM2 act: activators of human pyruvate kinase M2; P14618; purified PKM2, Kinase-Glo ATP luminescence, activation; response scale: 0% is enzyme alone, no compound; Potency, µM (top dose mostly 57.5 µM), usual class: activators; 0.34% of 260,000 active; AID 1631; also: nearly all actives have a fitted effect of over 55% in size
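hPK-M2, >95% pure; 0.1 mM ADP / 0.5 mM PEP final; imidazole pH7.2 buffer w/ 7 mM MgCl2, 50 mM KCl; 1 h RT; Kinase-Glo lum. Intermediate enzyme activity for dual inhibitor/activator qHTS.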
RXFP1 antag: blocks the human relaxin receptor RXFP1. HEK293-RXFP1, relaxin-stimulated cAMP HTRF, 30 min; hits give low values. Q9HBX9. 0.59% of 350,000 active. activity change, negative = inhibition, % at 57.5 µM. AID 1259400;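 active = activity change of -60% or lower, but not beyond a set lower limit; inconclusive = change between -60% and -40%, or beyond the set limit; inactive = change above -40%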
A number is an active result; i = inactive; ? = inconclusive; nt = no result given; [ ] = remark or other dose. Unless noted, calls follow the shape of the dose curve; as a rule, active = well fitted curve in the direction sought with a large enough effect; inconclusive = small, poorly fitted or top-dose-only effect, or another doubt; inactive = no such curve, though single readings can be large; an effect the other way counts as inactive or inconclusive.

SMILES	miR-21 reporter	RXFP1 agonist	KinaseGlo FLuc	GALK inh	PKM2 act	RXFP1 antag
C[C@]12C/C(=C/O)C(=O)C[C@@H]1CC[C@@H]1[C@@H]2CC[C@@]2(C)[C@H]1CC[C@]2(C)O	nt	nt	nt	nt	nt	-99.1
CC(C(=O)c1ccccc1)N(C)C (stereo not given)	nt	nt	nt	nt	nt	i
C[C@H]1[C@@H]2Cc3ccc(O)cc3[C@]1(C)CCN2C	nt	nt	nt	nt	nt	i
O=C(O)CC1OCC=C2CN3CCC45C6=CC(=O)C(=O)C([N+](=O)[O-])=C6NC4C1C2CC35 (stereo not given)	i	i	nt	10µM	i	i
C[n+]1c2ccccc2nc2ccc(NCCO)cc21	i	i	nt	i	nt	i
CNc1ccc2nc3ccccc3[n+](C)c2c1	i	i	nt	i	nt	-91.9
CCCCC/C=C\C/C=C\C/C=C\C/C=C\CCCC(=O)N(Cc1ccc(O)c(Cl)c1)Cc1ccc(O)c(Cl)c1	nt	nt	i	nt	nt	nt
CN(C)CCCNc1c2c(nc3ccc(Cl)cc13)CCCC2	nt	nt	i[7.66 µM]	nt	nt	nt
CCNC(=O)[C@H]1O[C@@H](n2cnc3c(N)ncnc32)[C@H](O)[C@@H]1O	i	1.26µM	nt	i	i	nt
COc1cc2cc(c1Cl)N(C)C(=O)C[C@H](OC(=O)C(C)C)[C@]1(C)O[C@@H]1[C@@H](C)[C@H]1C[C@](O)(NC(=O)O1)[C@@H](OC)/C=C\C=C(\C)C2	nt	nt	i[7.66 µM]	nt	nt	nt
O=C1NC(=O)N(Cc2ccccc2Cl)C(=O)/C1=C/c1cccs1	i	i	i	i	?	i
O=C1NC(=O)N(Cc2ccc(F)cc2)C(=O)/C1=C/c1cccs1	i	i	i	i	?	-74.4
Nc1ccccc1C(=O)OCC(=O)c1ccc2c(c1)OCCO2	i	i	11.2µM	i	i	i
CCn1nc(-c2ccccc2)nc2c(=O)n(C)c(=O)nc1-2	?	i	i	0.891µM	i	i
Nc1ccc(C2(c3ccc(N)cc3)c3ccccc3-c3ccccc32)cc1	i	i	i	nt	i	-80.3
FC(F)(F)c1ccc2c(c1)ncn2C1CCN(Cc2nnnn2C2CCCCC2)CC1	i	i	i	i	i	-74.2
O=C1C=CC(=O)C(Cl)=C1	nt	nt	i	nt	nt	nt
CC(C)CN(CC(C)C)c1ccc(C=C2C(=O)NC(=S)NC2=O)cc1[N+](=O)[O-]	i	i	i	i	i	-63.2
CCN(CC)c1ccc(C=C2C(=O)NC(=S)NC2=O)cc1	i	i	nt	i	i	?
O=C(Cn1c(=S)[nH]c2ccccc2c1=O)N1CCC2(CC1)OCCO2	i	i	i	i	i	i
O=C(CCCCCn1c(=S)[nH]c2ccccc2c1=O)N1CCC2(CC1)OCCO2	i	i	i	i	i	-82.9
CC(C)=CC1C(C(=O)OCN2C(=O)C3=C(CCCC3)C2=O)C1(C)C (stereo not given)	nt	nt	nt	nt	nt	-94.6
CCOC(=O)C1C(C=C(C)C)C1(C)C (stereo not given)	nt	nt	i	nt	nt	nt
Cc1c([C@@H](C)C2NC[C@H](C)C[C@@H]2O)ccc2c1C[C@@H]1[C@H]2CC=C2C[C@@H](O)CC[C@@]21C (stereo not given in full)	nt	nt	i[7.66 µM]	nt	nt	nt
CNc1cc(Cl)c2nonc2c1[N+](=O)[O-]	?	i	i	i	i	-81.4
SMILES	miR-21 reporter	RXFP1 agonist	KinaseGlo FLuc	GALK inh	PKM2 act	RXFP1 antag
CN1CCN(c2ccc([N+](=O)[O-])c3no[n+]([O-])c23)CC1	?	i	nt	i	i	-87.4
O=[N+]([O-])c1ccc(N(CCO)CCO)c2c1no[n+]2[O-]	nt	nt	nt	nt	nt	i
C[C@@H]1O[C@@H](O[C@H]2CC[C@]3(C=O)C4CC[C@]5(C)[C@@H](C6=CC(=O)OC6)CC[C@]5(O)[C@@H]4CC[C@]3(O)C2)[C@H](O)[C@H](O)[C@H]1O (stereo not given in full)	nt	nt	i	nt	nt	nt
O=C(CCCCl)c1ccc(F)cc1	nt	nt	nt	nt	nt	i
O=C1NC(=O)N(c2ccc3c(c2)OCO3)C(=O)/C1=C/c1ccsc1	i	i	i	i	i	i
O=C1NC(=O)N(c2ccc3c(c2)OCO3)C(=O)/C1=C/c1cccs1	i	i	i	i	11.2µM	?
CC(=O)Oc1c2c(c(CC=C(C)C)c3c1C(=O)C1=CC4CC5C(C)(C)OC(C/C=C(\C)C(=O)O)(C4=O)[C@]15O3)OC(C)(CCC=C(C)C)C=C2 (stereo not given in full)	nt	nt	i	nt	nt	nt
Cc1ccc(N2C(=O)NC(=O)/C(=C/c3ccc(-c4ccc(C(=O)O)c(Cl)c4)o3)C2=O)cc1	i	i	i	i	25.1µM	i
Cc1cc(/C=C2\C(=O)NC(=O)N(c3cccc(F)c3)C2=O)c(C)n1-c1ccc(C(=O)O)c(Cl)c1	i	i	nt	i	i[11.5 µM]	i
O=C1C(=O)c2ccccc2-c2ccccc21	?	i	i	3.16µM	i	nt
O=C1C(=O)c2cccc3cccc1c23	i	i	i	nt	i	i
Cc1cccc(NP(=O)(Oc2ccccc2)Oc2ccccc2)c1C	i	i	nt	i	i	-64.3
O=C1NC(=O)C(=Cc2coc3ccc(O)cc3c2=O)C(=O)N1	i	i	nt	nt	31.6µM	i
COC(=O)c1c(C)ccc2c(O)c3c(cc12)C(=O)c1c2c(cc(O)c1C3=O)[C@@]1(C)O[C@@](C)(O2)[C@@H](O)[C@H](N(C)C)[C@H]1O	nt	nt	i[7.66 µM]	nt	nt	nt
Clc1cccc(CNCCc2c[nH]c3ccccc23)c1	i	i	nt	i	nt	-84.1
FC(F)(F)c1ccc(CNCCc2c[nH]c3ccccc23)cc1	i	i	nt	i	i[11.5 µM]	i
O=C(O)[C@@H](O)[C@@H](O)C1[O][Sb][O][C@@H]1CO (stereo not given in full)	nt	nt	i[7.66 µM]	nt	nt	nt
Clc1ccc(C(c2ccc(Cl)cc2)C(Cl)(Cl)Cl)cc1	nt	nt	i	nt	nt	-72.1
Oc1ccc(Cl)cc1	nt	nt	i	nt	nt	i
O=c1[nH]c2ccccc2n1C1CCN(CCCC(c2ccc(F)cc2)c2ccc(F)cc2)CC1	i	i	i	i	i	-67.8
Oc1c(Cl)cccc1Cc1cc(Cl)cc(Cl)c1O	nt	nt	nt	nt	nt	-109.6
CN(C)c1ccc(/C=C/C=C2/C(=O)NC(=O)N(c3ccccc3)C2=O)cc1	i	i	14.1µM	i	i	i
Cc1cccc(N2C(=O)NC(=O)/C(=C\c3cccn3-c3ccc(Cl)cc3)C2=O)c1	i	i	i	i	i	-70.9
Cc1ccc(N2C(=O)NC(=O)/C(=C\C=C\c3ccco3)C2=O)cc1	?	i	nt	i	i	i
Cc1cc(C)cc(N2C(=O)NC(=O)/C(=C/c3cccn3-c3ccc(Cl)cc3)C2=O)c1	i	i	i	i	i	i
Cc1ccc(N2C(=O)NC(=O)/C(=C\C=C\c3ccco3)C2=O)cc1C	?	i	i	i	?	-70.1
Cc1cccc(N2C(=O)NC(=O)/C(=C\C=C\c3ccco3)C2=O)c1	i	i	nt	i	?	-68.0
